Compounds with a hit are over-represented: about 2.3% of the library has one in this group of screens.
ASAP1 GAP inh: ASAP1 ArfGAP inhibition. inhibition, % at 16.5 µM. Q9ULH1. 360,000 tested, 0.19% active. ASAP1-stimulated ARF1 GTP hydrolysis, GDP FP detection; in the data active = inhibition above about 25%
NRP1-CendR mod: alters CendR peptide binding to human NRP-1. O14786. FAM-RPARPAR peptide binding to NRP-1, fluorescence polarization. inhibition, % at 25 µM. 360,000 tested, 0.85% active;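 active = inhibition or corrected inhibition above about 18%, plus a signal ratio from 0.5 to 1.5, limit read from the data, passing the limit was not always enough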
UUG fidelity: alters start codon recognition fidelity in yeast; AID 602363; activity score, % at 18.7 µM; 350,000 tested, 0.13% active; S. cerevisiae UUG-firefly luciferase reporter, luminescence/redox ratio;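 active means replicate mean at a twofold rise or more, about +100% in these data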;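 further: firefly luciferase made from a UUG start codon reports start codon fidelity; reporter light over untreated wells divided by growth signal over untreated wells; some hits fall short of that in this replicate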
MC4R barr agon: human MC4R agonism via beta-arrestin; P32245; 360,000 tested, 0.98% active; activation, % at 8.9 µM; AID 540308; U2OS MC4R beta-arrestin complementation, luminescence; percent of melanotan II response, DMSO zero;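 active = activation above a per-plate cutoff, the mean activation of sample wells on that plate plus 3 SD, cut at about 8% in these data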
ARFGAP1 inh: inhibits rat ARF GTPase activating protein 1. Q62848. Arfgap1-stimulated ARF1 GTP hydrolysis, GDP FP detection. inhibition, % at 16.5 µM. 360,000 tested, 0.26% active;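 active = inhibition above a per-plate limit, mean inhibition of low control wells plus 3 SD, cut at about 25% in these data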
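System: truncated rat Arfgap1 GAP domain / Benchmarks: high control wells lacking Arfgap1, low control full reaction with DMSO / Times: compound-enzyme preincubation 20 min, reaction 120 min, detection 60 min, 25 °C / Repeats: one replicate per compound / Also added: human ARF1(Δ1-17)-GTP substrate / Measured by: Tracer-displacement fluorescence polarization with EDTA stop, 620/688 nm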
MC4R antagonist: human MC4R antagonism in cAMP assay. inhibition, % at 6.5 µM. MC4R-expressing cells, MTII-stimulated cAMP, LANCE TR-FRET. 360,000 tested, 0.48% active. P32245;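 active = inhibition above its plate's cutoff, the mean of tested wells on that plate plus 3 SD, cut at about 29% in these data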
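Assay system: U2OS cells stably expressing human melanocortin 4 receptor (MC4R) / Dosing: 6.5 µM / Timing: compound 30 min, challenge 1 h, detection 1 h / Measured by: Eu-cAMP/anti-cAMP TR-FRET, emission 671 nm / Replicates: singlicate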
U2OS cAMP counter: counter-screen for MC4R antagonists: nonselective cAMP signaling inhibitors; shares compounds with MC4R antagonist; parental U2OS, forskolin cAMP, LANCE TR-FRET; inhibition, % at 6.5 µM; 1,600 tested, 26% active; AID 602193;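 active = mean inhibition over triplicates above the low-control well mean plus 3 SD, set per campaign, cut at about 13% in these data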;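 also: signal is single emission at 671 nm which falls as cellular cAMP rises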
MC4R cAMP antag: human MC4R cAMP antagonism confirmation; MC4R-expressing cells, MTII-stimulated cAMP, TR-FRET; inhibition, % at 6.5 µM; AID 602195; 1,600 tested, 27% active; shares compounds with MC4R antagonist; in the data active = inhibition above about 29%
Of the large screens only hits and unclear results are named; the others gave an inactive call (follow-up assays come after a bar, where they were run).

O=C1OCCC1Sc1nc2cc(Cl)ccc2n1Cc1ccccc1 (stereo unspecified)	MC4R antagonist 48 (no result: UUG fidelity) | U2OS cAMP counter inactive | MC4R cAMP antag 33
O=C1OCCC1Sc1nc2ccccc2c(=O)n1Cc1ccccc1 (stereo unspecified)	none (no result: UUG fidelity)
C/C=C/c1cnc2c(c1)C(=O)N([C@@H](C)CO)C[C@@H](C)[C@H](CN(C)C(=O)Cc1ccccn1)O2	none (no result: ASAP1 GAP inh, NRP1-CendR mod, MC4R barr agon, ARFGAP1 inh, MC4R antagonist)
CCOC(=O)c1cnc(-n2nc(C)cc2C)[nH]c1=O	none
CCOC(=O)c1cnc(-n2[nH]c(C)cc2=O)[nH]c1=O	MC4R antagonist 30 (no result: UUG fidelity) | U2OS cAMP counter inactive | MC4R cAMP antag inactive
C[C@H]1CN([C@@H](C)CO)S(=O)(=O)c2ccc(-c3ccccc3)cc2O[C@H]1CN(C)Cc1ccccc1	none (no result: ASAP1 GAP inh, NRP1-CendR mod, MC4R barr agon, ARFGAP1 inh, MC4R antagonist)
Cc1ccc(S(=O)(=O)Nc2ccc3c(c2)CC(=O)N([C@@H](C)CO)C[C@@H](C)[C@@H](CN(C)Cc2ccncc2)O3)cc1	none (no result: ASAP1 GAP inh, NRP1-CendR mod, MC4R barr agon, ARFGAP1 inh, MC4R antagonist)
Cc1ccc(C)c(NC(=O)CSc2nnc(-c3ccncc3)o2)c1	none
N#Cc1ccccc1NC(=O)CSc1nnc(-c2ccncc2)o1	MC4R antagonist 30 | U2OS cAMP counter inactive | MC4R cAMP antag inactive
N#Cc1c([N+](=O)[O-])cc([N+](=O)[O-])cc1S(=O)(=O)Cc1ccccc1	MC4R antagonist 88 | U2OS cAMP counter 34 | MC4R cAMP antag inactive
COc1cc(OC)c(C#N)c(S(=O)(=O)Cc2ccccc2)c1	none
Cc1ccc(-c2ccc3c(c2)O[C@H](CN(C)C(=O)CN(C)C)[C@H](C)CN([C@H](C)CO)S3(=O)=O)cc1	none (no result: ASAP1 GAP inh, NRP1-CendR mod, MC4R barr agon, ARFGAP1 inh, MC4R antagonist)
COc1cc(OC)cc(OC(=O)C2CCN(C(=O)c3ccc(Cl)cc3)CC2)c1	MC4R antagonist 29 | U2OS cAMP counter inactive | MC4R cAMP antag inactive
COCCCN1C(=O)[C@@]2(Cc3ccccc31)c1ccccc1C(=O)N(C1CCCCC1)[C@H]2c1ccc(CO)cc1	none (no result: ASAP1 GAP inh, NRP1-CendR mod, MC4R barr agon, ARFGAP1 inh, MC4R antagonist)
Cc1ccc(-c2cn3cccnc3n2)cc1NC(=O)c1cccs1	MC4R antagonist 30 (no result: UUG fidelity) | U2OS cAMP counter inactive | MC4R cAMP antag inactive
COc1ccccc1/C=N/N1CCN(c2ccc(Cl)cc2)CC1	none
CCOc1cccc(/C=N/N2CCN(c3ccc(Cl)cc3)CC2)c1O	MC4R antagonist 32 | U2OS cAMP counter inactive | MC4R cAMP antag inactive
COCC(=O)Oc1cc(-c2ccc(C)cc2C)c(OC(=O)COC)c(-c2ccc(C)cc2C)c1	MC4R antagonist 30 | U2OS cAMP counter inactive | MC4R cAMP antag inactive
C[C@H](CO)N1C[C@H](C)[C@H](CN(C)C(=O)Nc2ccc3c(c2)OCO3)OCCCC[C@H](C)Oc2ccc(NC(=O)Nc3ccc(F)cc3)cc2C1=O	none (no result: ASAP1 GAP inh, NRP1-CendR mod, MC4R barr agon, ARFGAP1 inh, MC4R antagonist)
Cc1cccc(C(=O)Nc2nnc(S(=O)(=O)N3CCC(C)CC3)s2)c1	MC4R antagonist 50 | U2OS cAMP counter inactive | MC4R cAMP antag inactive
O=C(Nc1ccccc1Cl)C1CCCN(S(=O)(=O)c2cccc3cccnc23)C1 (stereo unspecified)	none
O=C(Nc1nc2cc(Cl)ccc2s1)C1CCCN(S(=O)(=O)c2cccc3cccnc23)C1 (stereo unspecified)	MC4R antagonist 29 (no result: ASAP1 GAP inh, ARFGAP1 inh) | U2OS cAMP counter inactive | MC4R cAMP antag inactive
CCNC(=O)C[C@H]1CC[C@H]2[C@@H](COc3ccc(NC(=O)Nc4cccc(C#N)c4)cc3C(=O)N2C)O1	none (no result: ASAP1 GAP inh, NRP1-CendR mod, MC4R barr agon, ARFGAP1 inh, MC4R antagonist)
COC(=O)[C@]1(C)CCC[C@@]2(C)C3CC[C@@]4(C)C[C@]3(CCC21)CC(=O)N4 (stereo partly specified)	none
C=C1C(=O)C23CCC4C(C)(C(=O)OC)CCCC4(C)C2CCC1(O)C3 (stereo unspecified)	MC4R antagonist 40 (no result: UUG fidelity) | U2OS cAMP counter 22 | MC4R cAMP antag 38
CCOc1ccc(C(=O)CCC(=O)NCC(=O)OCc2ccccc2)cc1OCC	MC4R antagonist 32 | U2OS cAMP counter inactive | MC4R cAMP antag inactive
CCOc1ccc(C(=O)OCC(=O)NCc2ccccc2)cc1OCC	none
Cc1ccc(NC(=O)CSc2nnc(CNC(=O)c3cccs3)o2)cc1	MC4R antagonist 31 (no result: UUG fidelity) | U2OS cAMP counter inactive | MC4R cAMP antag inactive
O=C(NC(Nc1nc2ccc([N+](=O)[O-])cc2s1)(C(F)(F)F)C(F)(F)F)c1ccccc1Cl	MC4R antagonist 33 (no result: UUG fidelity) | U2OS cAMP counter inactive | MC4R cAMP antag inactive
O=C(NC(Nc1nc2ccc([N+](=O)[O-])cc2s1)(C(F)(F)F)C(F)(F)F)c1cccnc1	none (no result: UUG fidelity)
Cc1ccc(S(=O)(=O)Nc2ccc3c(c2)CC(=O)N([C@H](C)CO)C[C@H](C)[C@@H](CN(C)Cc2ccc4c(c2)OCO4)O3)cc1	none (no result: ASAP1 GAP inh, NRP1-CendR mod, MC4R barr agon, ARFGAP1 inh, MC4R antagonist)
CC(NC(=O)COC(=O)CNS(=O)(=O)/C=C/c1ccccc1)c1ccccc1 (stereo unspecified)	MC4R antagonist 30 | U2OS cAMP counter inactive | MC4R cAMP antag inactive
